# Antibody variant affinities, Ab-14 heavy chain, assay 1

All variants were tested on one target, the spike HR2 peptide PDVDLGDISGINAS (SARS-CoV-2).

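The library (AAYL49) carries one to three amino acid substitutions per variant, with no insertions or deletions. Affinity was read by AlphaSeq, a pooled yeast mating assay with surface-displayed partners. Binding brings cells together so that they mate, and sequencing counts the barcode pairs among the diploids. Scores were corrected for input abundance and mapped to Kd with protein pairs of known affinity run in the same pool. Each pool was mated in three replicate cultures.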

Parent: Ab-14, a human scFv built as VH, the linker GGGGSGGGGSGGGGS, VL. Only the CDRs of the heavy chain vary.
VH: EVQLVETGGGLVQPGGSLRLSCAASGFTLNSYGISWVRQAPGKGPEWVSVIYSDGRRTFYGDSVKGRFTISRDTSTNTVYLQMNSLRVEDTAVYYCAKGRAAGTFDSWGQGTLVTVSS
VL: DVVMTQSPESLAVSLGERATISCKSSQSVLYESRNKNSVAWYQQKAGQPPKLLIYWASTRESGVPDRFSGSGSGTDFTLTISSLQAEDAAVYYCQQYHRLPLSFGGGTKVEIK

Substitutions are numbered in sequence along the VH above, starting at 1 (not Kabat).
The read-out is the apparent dissociation constant on a log10 scale (nM): the lower, the stronger.
The mean shown is taken over the replicates in which the pair was detected.
"not detected" means that the variant was in the library but no mating with the target was seen in any replicate; the authors take this as a sign of poor binding, and no number exists.

mean log10 Kd (nM)	seen in	signal with controls	changes
4.20	3 of 3	3 of 9	T28C A101R A102D
4.74	3 of 3	5 of 9	F27C Y60E D62H
3.52	2 of 3	1 of 9	I51V K65F T104M
3.42	1 of 3	1 of 9	S31E S35D S63H
not detected	0 of 3	0 of 9	G99L R100F D106N
3.10	1 of 3	6 of 9	S53A F59D A102T
not detected	0 of 3	2 of 9	N30W R57D T104R
4.75	1 of 3	0 of 9	S35H A102Q S107H
4.48	2 of 3	0 of 9	Y32W A101G
not detected	0 of 3	0 of 9	Y32D D54W D106H
not detected	0 of 3	0 of 9	G26F V64Y D106V
not detected	0 of 3	0 of 9	G26E F27T V64Q
not detected	0 of 3	0 of 9	I51R Y52M
not detected	0 of 3	0 of 9	Y52G G55F F59N
2.64	1 of 3	1 of 9	L29R Y32M I34L
3.17	3 of 3	4 of 9	G26T G33Q S63R
not detected	0 of 3	0 of 9	R56M V64A A102W
not detected	0 of 3	2 of 9	G26N G55H R100V
not detected	0 of 3	0 of 9	G55V F59G S107H
3.00	1 of 3	2 of 9	R57L A101V A102P
3.88	2 of 3	4 of 9	N30C G33T T104F
not detected	0 of 3	0 of 9	T28A Y32K I34N
not detected	0 of 3	0 of 9	Y52T R56W A101K
5.05	2 of 3	4 of 9	T28D V50Y F105D
3.16	1 of 3	0 of 9	G99A A101I T104H
not detected	0 of 3	1 of 9	F27R I51A Y60V
0.68	3 of 3	0 of 9	G103Y F105W S107P
not detected	0 of 3	0 of 9	R57L K65P D106T
3.96	1 of 3	3 of 9	N30Q I51P G55Y
not detected	0 of 3	0 of 9	S35R G61A G103P
not detected	0 of 3	0 of 9	S35M A102V T104C
not detected	0 of 3	1 of 9	N30Q F105A D106S
4.56	1 of 3	4 of 9	G26F Y32G V50W
not detected	0 of 3	4 of 9	S31G F105M D106H
4.32	2 of 3	0 of 9	L29Y S107Q
not detected	0 of 3	0 of 9	N30S D62A G103A
4.91	1 of 3	2 of 9	F59H G103L
not detected	0 of 3	4 of 9	R57K D62Y V64C
2.24	3 of 3	1 of 9	T28E S63K A101C
3.65	1 of 3	0 of 9	R56N D62Y A102H
not detected	0 of 3	3 of 9	I51Q T58I Y60S
0.69	3 of 3	1 of 9	F27E T104F D106M
1.34	3 of 3	3 of 9	T58S A101W
3.53	1 of 3	3 of 9	S31H G99V A102Y
not detected	0 of 3	0 of 9	Y32V R57C D62I
4.46	2 of 3	5 of 9	S35G R56S V64G
not detected	0 of 3	0 of 9	L29N S53A D54L
3.64	1 of 3	2 of 9	S53K T58I K65V
2.64	1 of 3	1 of 9	I51V D54A R56K
not detected	0 of 3	1 of 9	Y52W S53R G55F
1.44	3 of 3	2 of 9	F27L N30L A101Y
4.08	1 of 3	2 of 9	T28R Y52A R56E
not detected	0 of 3	0 of 9	R56I G99Y
2.86	2 of 3	0 of 9	N30G V64M
3.98	1 of 3	1 of 9	Y60L D62V S107N
5.33	1 of 3	3 of 9	V64W G99K D106Y
not detected	0 of 3	1 of 9	I34K R100L
not detected	0 of 3	2 of 9	F27V L29N F105Y
5.84	1 of 3	4 of 9	Y32E I51V D54L
not detected	0 of 3	0 of 9	G55Y F105L D106V
not detected	0 of 3	0 of 9	D54E G103S F105S
3.20	1 of 3	1 of 9	S35K G103Y F105Q

The first 6 entries again:

{"changes": "T28C A101R A102D", "mean log10 Kd (nM)": "4.20", "seen in": "3 of 3", "signal with controls": "3 of 9"}
{"changes": "F27C Y60E D62H", "mean log10 Kd (nM)": "4.74", "seen in": "3 of 3", "signal with controls": "5 of 9"}
{"changes": "I51V K65F T104M", "mean log10 Kd (nM)": "3.52", "seen in": "2 of 3", "signal with controls": "1 of 9"}
{"changes": "S31E S35D S63H", "mean log10 Kd (nM)": "3.42", "seen in": "1 of 3", "signal with controls": "1 of 9"}
{"changes": "G99L R100F D106N", "mean log10 Kd (nM)": "not detected", "seen in": "0 of 3", "signal with controls": "0 of 9"}
{"changes": "S53A F59D A102T", "mean log10 Kd (nM)": "3.10", "seen in": "1 of 3", "signal with controls": "6 of 9"}

Parent in this assay: reference entry 0.65, copy in this library 4.11 (one replicate of three).
Background: pairings of library AAYL49 with three empty control strains gave a value in 15% of cases (median 4.06, 5th percentile 2.83). Values in that range, when seen in few replicates, are hard to tell from nonspecific mating. For each scFv, signals with the empty controls are counted beside the result.

Reference: Engelhart et al. 2022, doi:10.1038/s41597-022-01779-4. File: FLAb, binding data.